The subject of the assay is PD1-overexpressing Jurkat cells. Description: PD-L1-Fc binding to PD1-overexpressing Jurkat cells. The note with it: detection with anti-human Fc AF647, MFI, flow cytometry. The class given is cell-based. As for the experimental part:
The Jurkat T-cell line that was used in competitive inhibition was a recombinant Jurkat T-cell line that was purchased from Promega (Madison, WI, USA; Cat. 60535) and was cultured according to the manufacturer's instructions. This cell line expressed the firefly luciferase gene under the control of the nuclear factor of activated T cells (NFAT) response elements and overexpressed human PD-1 (Programmed Cell Death 1, GenBank Accession #NM_005018). PD1 protein expression was detected using anti-human PD1 conjugated to allophycocyanin (APC) (BioLegend, San Diego, CA, USA). Jurkat cells were added to wells of a 96-well plate. An 11-point dilution series of each peptide starting at 10 μM was prepared. Peptide dilutions were added to wells containing 50,000 Jurkat cells per well and incubated for 30 min on ice. […] Cells were then washed with staining buffer and incubated with anti-human IgG conjugated to AF647 (Jackson ImmunoResearch, West Grove, PA, USA) for 30 min on ice. Cells were washed and re-suspended with staining buffer and analyzed by flow cytometry.
Different concentrations of PD-L1-Fc fusion protein were incubated with Jurkat cells that overexpress PD1. Binding of PD-L1-Fc was detected with anti-human Fc antibody conjugated to AF647. Mean fluorescence intensities were measured by flow cytometry. […]
In general terms: In flow cytometry, cells or beads pass a laser one at a time.

As to “PD-L1-Fc: recombinant human PDL1-Fc fusion protein (Life Technologies)”, the “binding of PD-L1-Fc to PD1-overexpressing Jurkat cells” value is recorded as “in a dose-dependent manner”.

The values above are taken from publication PMC7068811 (Frontiers in Immunology, 2020).
